The nature of the assay: Selectivity ratio of IC50 for GSK3beta to IC50 for RGS4.

Regarding `CCCCn1c(=O)sn(CC)c1=O`, the Ratio IC50 is 5000.

(Values after ChEMBL document CHEMBL2034949, “Small Molecule Inhibitors of Regulator of G Protein Signalling (RGS) Proteins” (ACS Med Chem Lett, 2012).)
